# Membrane permeability of cyclic peptides

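The data file gives no further conditions (lipid, pH, time, direction or concentration), and values from different papers need not be comparable. The list need not hold all peptides of the study. Peptides that the database sets to -10, its floor, are left out.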

PAMPA is the parallel artificial membrane permeability assay, which has no cells and reads passive diffusion.
Values are log10 P with P in cm/s, so -5 is more permeable than -7.

CC(=O)N[C@@H]1C(=O)N2CCC[C@H]2C(=O)N(C)[C@H](CC(C)C)C(=O)N[C@H](CC(C)C)C(=O)N[C@@H](CC(C)C)C(=O)N[C@@H](CC(C)C)C(=O)N(C)[C@@H](C)C(=O)N[C@@H](CC(C)C)C(=O)N2CCC[C@@H]2C(=O)O[C@@H]1C is reported with PAMPA -6.76 (log10 cm/s). The entry for CC(=O)N1CCC[C@H]1C(=O)N[C@@H]1C(=O)N[C@H](CC(C)C)C(=O)N[C@@H](CC(C)C)C(=O)N(C)[C@H](CC(C)C)C(=O)N(C)[C@@H](CC(C)C)C(=O)N(C)[C@@H](C)C(=O)N[C@@H](CC(C)C)C(=O)N2CCC[C@@H]2C(=O)O[C@@H]1C lists PAMPA -5.11 (log10 cm/s). CC(=O)N1CCC[C@@H]1C(=O)N(C)[C@H](CC(C)C)C(=O)N[C@@H]1C(=O)N[C@H](CC(C)C)C(=O)N(C)[C@@H](CC(C)C)C(=O)N(C)[C@@H](CC(C)C)C(=O)N[C@@H](C)C(=O)N[C@@H](CC(C)C)C(=O)N2CCC[C@@H]2C(=O)O[C@@H]1C is reported with PAMPA -5.30 (log10 cm/s). The entry for CC(=O)N1CCC[C@H]1C(=O)N[C@@H]1C(=O)N[C@H](CC(C)C)C(=O)N(C)[C@@H](CC(C)C)C(=O)N(C)[C@@H](CC(C)C)C(=O)N(C)[C@H](CC(C)C)C(=O)N[C@H](C)C(=O)N[C@@H](CC(C)C)C(=O)N2CCC[C@@H]2C(=O)O[C@@H]1C lists PAMPA -5.06 (log10 cm/s). For CC(=O)N1CCC[C@H]1C(=O)N(C)[C@H](CC(C)C)C(=O)N[C@@H]1C(=O)N[C@@H](CC(C)C)C(=O)N[C@@H](CC(C)C)C(=O)N(C)[C@H](CC(C)C)C(=O)N(C)[C@H](C)C(=O)N[C@@H](CC(C)C)C(=O)N2CCC[C@H]2C(=O)O[C@@H]1C the data give PAMPA -5.44 (log10 cm/s). CC(=O)N1CCC[C@@H]1C(=O)N(C)[C@H](CC(C)C)C(=O)N[C@@H]1C(=O)N(C)[C@@H](CC(C)C)C(=O)N[C@H](CC(C)C)C(=O)N(C)[C@@H](CC(C)C)C(=O)N(C)[C@@H](C)C(=O)N[C@@H](CC(C)C)C(=O)N2CCC[C@H]2C(=O)O[C@@H]1C has PAMPA -6.01 (log10 cm/s). CC(=O)N1CCC[C@@H]1C(=O)N(C)[C@@H](CC(C)C)C(=O)N[C@@H]1C(=O)N[C@H](CC(C)C)C(=O)N[C@@H](CC(C)C)C(=O)N[C@@H](CC(C)C)C(=O)N(C)[C@@H](C)C(=O)N[C@H](CC(C)C)C(=O)N2CCC[C@H]2C(=O)O[C@@H]1C has PAMPA -6.15 (log10 cm/s). For CC(=O)N1CCC[C@H]1C(=O)N(C)[C@H](CC(C)C)C(=O)N[C@@H]1C(=O)N(C)[C@@H](CC(C)C)C(=O)N[C@H](CC(C)C)C(=O)N(C)[C@@H](CC(C)C)C(=O)N(C)[C@@H](C)C(=O)N[C@@H](CC(C)C)C(=O)N2CCC[C@@H]2C(=O)O[C@@H]1C the data give PAMPA -5.55 (log10 cm/s).

For CC(=O)N1CCC[C@H]1C(=O)N(C)[C@H](CC(C)C)C(=O)N[C@@H]1C(=O)N[C@@H](CC(C)C)C(=O)N[C@@H](CC(C)C)C(=O)N[C@H](CC(C)C)C(=O)N[C@@H](C)C(=O)N[C@@H](CC(C)C)C(=O)N2CCC[C@H]2C(=O)O[C@@H]1C the data give PAMPA -6.35 (log10 cm/s). Listed for CC(=O)N1CCC[C@H]1C(=O)N(C)[C@@H](CC(C)C)C(=O)N[C@@H]1C(=O)N[C@@H](CC(C)C)C(=O)N[C@H](CC(C)C)C(=O)N(C)[C@@H](CC(C)C)C(=O)N(C)[C@H](C)C(=O)N[C@@H](CC(C)C)C(=O)N2CCC[C@H]2C(=O)O[C@@H]1C: PAMPA -5.74 (log10 cm/s). CC(=O)N1CCC[C@H]1C(=O)N[C@@H]1C(=O)N(C)[C@H](CC(C)C)C(=O)N[C@@H](CC(C)C)C(=O)N[C@@H](CC(C)C)C(=O)N(C)[C@@H](CC(C)C)C(=O)N[C@@H](C)C(=O)N[C@@H](CC(C)C)C(=O)N2CCC[C@@H]2C(=O)O[C@@H]1C is reported with PAMPA -6.01 (log10 cm/s). Listed for CC(=O)N1CCC[C@H]1C(=O)N(C)[C@@H](CC(C)C)C(=O)N[C@@H]1C(=O)N[C@H](CC(C)C)C(=O)N[C@H](CC(C)C)C(=O)N(C)[C@@H](CC(C)C)C(=O)N(C)[C@@H](C)C(=O)N[C@@H](CC(C)C)C(=O)N2CCC[C@H]2C(=O)O[C@@H]1C: PAMPA -5.86 (log10 cm/s). The entry for CC(=O)N1CCC[C@H]1C(=O)N(C)[C@H](CC(C)C)C(=O)N[C@@H]1C(=O)N[C@H](CC(C)C)C(=O)N[C@H](CC(C)C)C(=O)N[C@@H](CC(C)C)C(=O)N[C@@H](C)C(=O)N[C@@H](CC(C)C)C(=O)N2CCC[C@@H]2C(=O)O[C@@H]1C lists PAMPA -5.53 (log10 cm/s). CC(=O)N1CCC[C@H]1C(=O)N(C)[C@@H](CC(C)C)C(=O)N[C@@H]1C(=O)N[C@@H](CC(C)C)C(=O)N[C@@H](CC(C)C)C(=O)N[C@H](CC(C)C)C(=O)N[C@H](C)C(=O)N[C@@H](CC(C)C)C(=O)N2CCC[C@@H]2C(=O)O[C@@H]1C has PAMPA -6.70 (log10 cm/s). CC(=O)N1CCC[C@H]1C(=O)N(C)[C@@H](CC(C)C)C(=O)N[C@@H]1C(=O)N[C@@H](CC(C)C)C(=O)N(C)[C@@H](CC(C)C)C(=O)N(C)[C@@H](CC(C)C)C(=O)N[C@@H](C)C(=O)N[C@@H](CC(C)C)C(=O)N2CCC[C@H]2C(=O)O[C@@H]1C has PAMPA -6.84 (log10 cm/s). CC(=O)N1CCC[C@@H]1C(=O)N(C)[C@@H](CC(C)C)C(=O)N[C@@H]1C(=O)N[C@H](CC(C)C)C(=O)N(C)[C@@H](CC(C)C)C(=O)N[C@@H](CC(C)C)C(=O)N(C)[C@@H](C)C(=O)N[C@@H](CC(C)C)C(=O)N2CCC[C@@H]2C(=O)O[C@@H]1C has PAMPA -5.18 (log10 cm/s).

Source: CycPeptMPDB (Li et al. 2023), which took these values from Kelly et al. 2021, doi:10.1021/jacs.0c06115.